In PubChem BioAssay AID2642 (Johns Hopkins Ion Channel Center, 2010):
Only a part is listed here, and it is no random draw. Some structures show a salt or complex split into parts, the way the source records it. Calls of active or inactive are those of the source.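 The calls were made as follows: active = compounds whose thallium flux B-score, printed positive for inhibition, exceeds three library SD while starting fluorescence stays within three; inactive = the rest.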

Protein sequences, listed by entry. Tags and fused reporters are not part of them.
UniProt P51787, whole entry: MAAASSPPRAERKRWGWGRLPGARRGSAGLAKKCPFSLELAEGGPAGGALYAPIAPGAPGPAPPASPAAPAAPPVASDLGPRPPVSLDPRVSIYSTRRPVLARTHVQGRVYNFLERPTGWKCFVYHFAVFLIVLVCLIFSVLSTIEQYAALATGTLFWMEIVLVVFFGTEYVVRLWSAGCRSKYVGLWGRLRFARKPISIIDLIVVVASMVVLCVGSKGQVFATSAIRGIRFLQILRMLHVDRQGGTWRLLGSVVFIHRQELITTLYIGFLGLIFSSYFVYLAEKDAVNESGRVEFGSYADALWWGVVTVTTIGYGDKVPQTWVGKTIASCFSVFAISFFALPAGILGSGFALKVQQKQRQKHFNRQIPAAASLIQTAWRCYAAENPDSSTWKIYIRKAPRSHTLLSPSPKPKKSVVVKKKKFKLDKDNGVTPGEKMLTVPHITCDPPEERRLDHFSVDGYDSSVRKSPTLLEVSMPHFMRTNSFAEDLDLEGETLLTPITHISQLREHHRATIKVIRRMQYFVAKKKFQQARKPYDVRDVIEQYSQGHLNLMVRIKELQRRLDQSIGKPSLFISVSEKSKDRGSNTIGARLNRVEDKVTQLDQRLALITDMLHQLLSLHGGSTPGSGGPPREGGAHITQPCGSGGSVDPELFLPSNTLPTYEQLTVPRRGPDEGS

biological target: Potassium voltage-gated channel subfamily KQT member 1 (Homo sapiens) (UniProt P51787); experiment: KCNQ1 potassium current blockers – cell-based, thallium flux, high-throughput, primary screen (AID 2642); details: CHO-K1 KCNQ1, FluxOR thallium flux fluorescence, at 10 µM;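 also: channel opened by potassium depolarization with thallium stimulus after 20 min compound exposure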

SMILES	outcome
COc1ccccc1OP(=O)(Nc1ccc(C)cn1)Oc1ccccc1OC	inactive
COc1ccc(OP(C)(=O)Nc2ccccn2)cc1 (stereo not given)	inactive
O=C(NC(Sc1ccncn1)C(Cl)(Cl)Cl)c1ccccc1 (stereo not given)	inactive
Cc1c2non([O-])c-2c(C)[n+](=O)[n+]1[O-]	inactive
Oc1ccccc1CNc1ccccn1	inactive
Cc1c(NP(C)(=O)Oc2ccc(C(C)C)cc2)c(=O)n(-c2ccccc2)n1C (stereo not given)	inactive
Nc1cc(N)c2nonc2c1[N+](=O)[O-]	inactive
CC(C)CC(=O)NC(Sc1ccc(Cl)cc1)C(Cl)(Cl)Cl (stereo not given)	inactive
O=[N+]([O-])c1cc([N+](=O)[O-])c(Nc2ccccn2)c([N+](=O)[O-])c1	inactive
CCc1ccc(OP(C)(=O)O)cc1	inactive
COc1ccccc1OP(C)(=O)Nc1ccc(C)cc1C (stereo not given)	inactive
CP(=O)(Nc1ccccn1)Oc1ccccc1 (stereo not given)	inactive
O=P(Nc1nc2ccc(Cl)cc2s1)(c1ccccc1)c1ccccc1	inactive
Cc1cc(C)cc(OP(C)(=O)Nc2cccc(C(F)(F)F)c2)c1 (stereo not given)	inactive
CC(=O)Nc1ccc([As](=O)(O)O)cc1	inactive
O=C(O)c1ccccc1[As](=O)(O)O	inactive
COc1ccc(OP(C)(=O)Nc2ccccc2Br)cc1 (stereo not given)	inactive
COc1ccccc1OP(C)(=O)Nc1ccc(C)c(C)c1 (stereo not given)	inactive
Cc1ccc(NP(=O)(Oc2ccccc2F)Oc2ccccc2F)nc1	inactive
CN(C(=O)Cc1ccc(Cl)c(Cl)c1)[C@H]1CCCC[C@@H]1N1CCCC1	inactive
Cc1cc(SC(NC(=O)c2ccc(F)cc2)C(Cl)(Cl)Cl)ncn1 (stereo not given)	inactive
CCOP(=O)(Nc1ccccc1)OCC	inactive
Cc1nc2ccc3ccccc3c2o1.O=[N+]([O-])c1cc([N+](=O)[O-])c(O)c([N+](=O)[O-])c1	inactive
CP(=O)(Nc1ccc(Cl)cc1Cl)Oc1ccccc1 (stereo not given)	inactive
CP(=O)(OCCOc1ccccc1)OCCOc1ccccc1	inactive
Nc1cccc2ccc([As](=O)(O)O)cc12	inactive
CCN(N=Nc1nonc1N)c1nonc1N	inactive

SMILES	outcome
CCOC(=O)NC(Sc1ccccc1)C(Cl)(Cl)Cl (stereo not given)	inactive
Cc1ccc(NP(=O)(Oc2cccc(C)c2)Oc2cccc(C)c2)nc1	inactive
c1ccc(-c2nn[nH]n2)c(-c2nn[nH]n2)c1	inactive
CCNC(=S)/N=C(\N)N[N+](=O)[O-]	inactive
O=C(NC1CCS(=O)(=O)C1)NP(=S)(Oc1ccccc1)Oc1ccccc1 (stereo not given)	inactive
COc1ccc(OP(C)(=O)Nc2ccc(SC(F)(F)F)cc2)cc1 (stereo not given)	inactive
CCOC(=O)c1ccc(NP(C)(=O)Oc2ccc(F)cc2)cc1 (stereo not given)	inactive
CCN(CC)CCCOC(=O)C(O)(c1ccccc1)C1CCCCC1 (stereo not given)	inactive
CCC(=O)N1C2C3N(C(=O)CC)C1C1N(C(=O)CC)C(C(N1C(=O)CC)N3C(=O)CC)N2C(=O)CC	inactive
O=C(OC1CN2CCC1CC2)c1ccccc1 (stereo not given)	inactive
Cc1ccc(OP(=O)(Nc2ccccn2)Oc2ccc(C)cc2)cc1	inactive
CC(=O)NC(SC(=S)N(CC(C)C)CC(C)C)C(Cl)(Cl)Cl (stereo not given)	inactive
COC(=O)c1cc2c(s1)N=C(c1ccccc1)N(C)P2(=O)N1CCOCC1 (stereo not given)	inactive
O=[N+]([O-])c1cc([N+](=O)[O-])c(OC2CCCCC2O)c([N+](=O)[O-])c1 (stereo not given)	inactive
CCCCCOc1ccc(NP(C)(=O)Oc2ccc(Cl)cc2Cl)cc1 (stereo not given)	inactive
CN(C)C(=O)Oc1noc2ccccc12	inactive
Cc1ccccc1OP(=O)(Nc1ccccn1)Oc1ccccc1C	inactive
CP(=O)(Nc1ccccc1)Oc1ccc(F)cc1 (stereo not given)	inactive
CCOc1ccc(C2=NCC(CBr)S2)cc1 (stereo not given)	inactive
O=P1(Nc2nc3ccc(Cl)cc3s2)COc2ccccc2O1 (stereo not given)	inactive
CC(C)c1ccc(OP(C)(=O)Nc2ccc(SC(F)(F)F)cc2)cc1 (stereo not given)	inactive
CC(C)(C)C(=O)NC(Sc1ccccc1)C(Cl)(Cl)Cl (stereo not given)	inactive
CP(=O)(Nc1ccccc1F)Oc1ccccc1 (stereo not given)	inactive
C[C@H]1OP(=O)(Oc2ccccc2)C[C@@H]2O[C@@H]21 (stereo not given in full)	inactive
C[C@@H]1C=CCP(=O)(Oc2ccccc2)O1 (stereo not given in full)	inactive
O=C(OCCN1CCN(CCOCc2ccccc2)CC1)C(O)(c1ccccc1)c1ccccc1	inactive
O=C(OC1CN2CCC1CC2)c1ccc([N+](=O)[O-])cc1 (stereo not given)	inactive

SMILES	outcome
CC(=O)c1ccc(N2CC2c2ccncc2)cc1 (stereo not given)	inactive
CC(=O)Nc1ccc(Oc2c([N+](=O)[O-])cc([N+](=O)[O-])cc2[N+](=O)[O-])cc1	inactive
CC(=O)Nc1ccc([As](=O)(O)O)c(O)c1	inactive
COc1ccc2c(c1O)-c1c(O)c(OC)cc3c1[C@H](C2)[N+](C)(C)CC3.O=[N+]([O-])c1cc([N+](=O)[O-])c([O-])c([N+](=O)[O-])c1[O-]	inactive
CC(C)C(=O)NC(Sc1ccccc1)C(Cl)(Cl)Cl (stereo not given)	inactive
O=P(Nc1nccs1)(c1ccccc1)c1ccccc1	inactive
CP(=O)(Nc1ccc(SC(F)(F)F)cc1)Oc1ccc(F)cc1 (stereo not given)	inactive
c1nnnn1CCn1cnnn1	inactive
CCOP(C)(=S)SCC(=O)NC(C)(CC)C(=O)O (stereo not given)	inactive
CP(=O)(Nc1ccc2c(c1)OCCO2)Oc1ccccc1 (stereo not given)	inactive
O=P(Nc1ccccn1)(c1ccc(Br)cc1)c1ccc(Br)cc1	inactive
CN(C)C1(CNC(=O)c2ccc(Cl)c(S(N)(=O)=O)c2)CCCCC1	inactive
COc1ccc(OP(C)(=O)Nc2cccc(Br)c2)cc1 (stereo not given)	inactive
COc1ccc(NP(C)(=O)Oc2ccccc2OC)cc1 (stereo not given)	inactive
C[C@H]1OP(=O)(Oc2ccccc2)[C@H](O)[C@H](O)[C@H]1N=[N+]=[N-] (stereo not given in full)	inactive
CN(C)CCOC(=O)C(O)(c1ccccc1)C1CCCCC1 (stereo not given)	inactive
O=P(Nc1nc2ccccc2s1)(c1ccccc1)c1ccccc1	inactive
O=[N+]([O-])c1cc([N+](=O)[O-])c(NCC2CCS(=O)(=O)C2)c([N+](=O)[O-])c1 (stereo not given)	inactive
Cc1cc(-c2cccc3ccccc23)c(C)cn1.O=[N+]([O-])c1cc([N+](=O)[O-])c(O)c([N+](=O)[O-])c1	inactive
O=[As](O)(c1ccccc1)c1ccc(O)cc1	inactive
O=[N+]([O-])c1ncn(CCn2cnc([N+](=O)[O-])n2)n1	inactive
O=[N+]([O-])c1ccc(OP2(=O)COCCO2)cc1 (stereo not given)	inactive
CC(=O)NC(SC(=S)N(C)C)C(Cl)(Cl)Cl (stereo not given)	inactive
O=C(OC1CN2CCC1CC2)c1cccc(Cl)c1 (stereo not given)	inactive
C(Cc1nn[nH]n1)Cc1nn[nH]n1	inactive
Nc1ccc([As](=O)(O)c2ccc([N+](=O)[O-])cc2)cc1	inactive
